Experimental data as given in PubChem BioAssay (EPA / NIEHS).
The entries are a selection whose mix differs from that of the whole data set. Calls of active or inactive are those of the source. How the source made its calls: active means hit-call score of the fitted dose curve at least 0.9, where 1 is the maximum; inactive means score below 0.9.

Amino acid sequences for entries named in this document (tags omitted). A change or cut given only in a name is not applied to a line headed by its entry.
UniProt P22680: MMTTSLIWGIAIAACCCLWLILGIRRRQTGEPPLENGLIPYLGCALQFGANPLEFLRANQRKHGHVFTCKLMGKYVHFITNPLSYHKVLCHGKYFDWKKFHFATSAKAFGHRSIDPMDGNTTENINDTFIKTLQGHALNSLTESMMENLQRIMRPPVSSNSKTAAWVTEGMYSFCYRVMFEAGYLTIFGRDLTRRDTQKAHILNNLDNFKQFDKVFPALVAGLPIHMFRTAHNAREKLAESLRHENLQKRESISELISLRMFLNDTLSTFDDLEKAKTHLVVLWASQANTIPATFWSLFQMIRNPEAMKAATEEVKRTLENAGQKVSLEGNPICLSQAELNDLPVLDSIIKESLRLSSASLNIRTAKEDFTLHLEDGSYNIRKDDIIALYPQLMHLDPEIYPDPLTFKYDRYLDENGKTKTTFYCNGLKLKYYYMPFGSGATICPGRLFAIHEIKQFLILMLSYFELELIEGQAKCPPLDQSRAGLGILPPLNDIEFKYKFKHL

The molecules below were run on Cytochrome P450 7A1 (Homo sapiens) (UniProt P22680) (assay: LTEA_HepaRG_CYP7A1: Life Technologies and Expression Analysis (LTEA) Assay for Cytochrome P450 7A1 (CYP7A1) using HepaRG (AID 2283496)). Conditions: actives raise or lower the signal; mRNA level, 48 h.
Experimental: (§1) LTEA_HepaRG is a cell based, multiplexed-readout assay that uses HepaRG, a human liver cell line, with measurements taken at 48 hours after chemical dosing on a 96-well plate.LTEA_HepaRG_CYP7A1 is one of 102 assay component(s) measured in the LTEA HepaRG cell culture assay. It is a marker of NR mediated metabolism.Data from the assay component LTEA_HepaRG_CYP7A1 was analyzed into 1 endpoint. This assay endpoint, LTEA_HepaRG_CYP7A1, was analyzed with bidirectional fitting relative to DMSO as the negative control and baseline of activity. Using a type of inducible reporter, measures of mRNA induction for gain or loss-of-signal activity can be used to understand regulation of transcription factor activity. To generalize the intended target to other relatable targets, this assay endpoint is annotated to the cyp intended target family, where the subfamily is xenobiotic metabolism.
(§2) A total of 1060 chemcials from the ToxCast library were tested in eight-point concentration-response experiments. Cell culture and cytotoxicity assays were conducted at Thermo Fisher Scientific's Custom Services facility (Madison, WI). A single lot of human HepaRG cells (Thermo Fisher Scientific, Frederick, MD) was used for the cell culture experiments. 96-well format collagen type I coated plates of human HepaRG cells were prepared using established methods. Briefly, cryopreserved HepaRG cells were thawed, plated at a density of approximately 100,000 cells/well in HepaRG Thaw, Plate, and General Purpose media (HPRG770, Thermo Fisher Scientific), and incubated for 48 hours. […] Fluidigm's 96.96 Dynamic ArrayTM (Fluidigm, Amsterdam, the Netherlands) technology was used for gene expression analyses by quantitative reverse transcription polymerase chain reaction (qRT-PCR, performed by Quintiles/Expression Analysis, Durham, NC)89. […]

| Compound | outcome | AC50 |
| --- | --- | --- |
| CN(C(=O)Cc1cccc2occc12)[C@H]1CC[C@@]2(CCCO2)C[C@@H]1N1CCCC1 | inactive |  |
| Cc1cc([N+](=O)[O-])cc([N+](=O)[O-])c1O |  | active: 8.23 µM |
| CC(C)OP(=S)(OC(C)C)SCCNS(=O)(=O)c1ccccc1 |  | active: 76.4 µM |

Each molecule was assayed on Glutathione S-Transferase (GSTA2), GSTA2 (gene 2939) (assay: LTEA_HepaRG_GSTA2: Life Technologies and Expression Analysis (LTEA) Assay for Glutathione S-Transferase (GSTA2) using HepaRG (AID 2283497)). Conditions: actives raise or lower the signal; mRNA level, 48 h.
Experimental: as §1, with “plate.LTEA_HepaRG_GSTA2” for “plate.LTEA_HepaRG_CYP7A1”, “Oxidative Stress.Data” for “NR mediated metabolism.Data”, “LTEA_HepaRG_GSTA2” for “LTEA_HepaRG_CYP7A1”, “LTEA_HepaRG_GSTA2,” for “LTEA_HepaRG_CYP7A1,”, “transferase” for “cyp”, “alkyl and aryl transferase.” for “xenobiotic metabolism.”
as §2

| Compound | outcome | AC50 |
| --- | --- | --- |
| CN(C(=O)Cc1cccc2occc12)[C@H]1CC[C@@]2(CCCO2)C[C@@H]1N1CCCC1 | inactive |  |
| Cc1cc([N+](=O)[O-])cc([N+](=O)[O-])c1O |  | active: 7.7 µM |
| O=C1C2CC=CCC2C(=O)N1SC(Cl)(Cl)C(Cl)Cl (stereo not drawn) | inactive |  |

These molecules were tested on Glutamate-cysteine ligase catalytic (GCLC), GCLC (gene 2729) (assay: LTEA_HepaRG_GCLC: Life Technologies and Expression Analysis (LTEA) Assay for Glutamate-cysteine ligase catalytic (GCLC) using HepaRG (AID 2283498)). Conditions: actives raise or lower the signal; mRNA level, 48 h.
Summary of the method: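 Expression by TaqMan qRT-PCR, normalized to three housekeeping genes (ACTB, GAPDH, POLR2A), with up- or down-regulation fitted against DMSO. HepaRG cells dosed in duplicate for 48 h with 8 half-log concentrations up to 100 uM, vehicle 0.5% DMSO.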

| Compound | outcome |
| --- | --- |
| CN(C(=O)Cc1cccc2occc12)[C@H]1CC[C@@]2(CCCO2)C[C@@H]1N1CCCC1 | inactive |
| Cc1cc([N+](=O)[O-])cc([N+](=O)[O-])c1O | inactive |
| CC(C)OP(=S)(OC(C)C)SCCNS(=O)(=O)c1ccccc1 | inactive |
| O=C1C2CC=CCC2C(=O)N1SC(Cl)(Cl)C(Cl)Cl (stereo not drawn) | inactive |

These molecules were tested on growth arrest and DNA damage 45 (GADD45G), GADD45G (gene 10912) (assay: LTEA_HepaRG_GADD45G: Life Technologies and Expression Analysis (LTEA) Assay for growth arrest and DNA damage 45 (GADD45G) using HepaRG (AID 2283499)). Conditions: actives raise or lower the signal; mRNA level, 48 h.
Summary of the method: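 GADD45G transcript level by qRT-PCR (housekeeping-normalized: ACTB, GAPDH, POLR2A) after 48 h chemical treatment of a single HepaRG lot in serum-free induction medium; eight-point half-log series up to 100 uM in 0.5% DMSO, duplicates, up- or down-regulation scored.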

| Compound | outcome | AC50 |
| --- | --- | --- |
| CN(C(=O)Cc1cccc2occc12)[C@H]1CC[C@@]2(CCCO2)C[C@@H]1N1CCCC1 | inactive |  |
| CC(C)OP(=S)(OC(C)C)SCCNS(=O)(=O)c1ccccc1 | inactive |  |
| O=C1C2CC=CCC2C(=O)N1SC(Cl)(Cl)C(Cl)Cl (stereo not drawn) |  | active: 50 µM |
